{
  "source": "patent US11471507B2",
  "about": "“HMGB1 antagonist” (THE FEINSTEIN INSTITUTES FOR MEDICAL RESEARCH, priority 2019, dated 2022)",
  "key": {"in vitro [1]": {"assay": "in vitro", "details": "mouse, serum"}, "in vitro [2]": {"assay": "in vitro", "details": "rat"}},
  "data": [
    {"smiles": "NC(=O)[C@H](CCC(=O)O)NC(=O)[C@H](CO)NC(=O)[C@H](CO)NC(=O)[C@@H](N)Cc1ccccc1", "note": "[P5779]", "values": [
      {"measurement": "half-life at 100 μg", "setting": "in vitro [1]", "result": 60, "unit": "min"},
      {"measurement": "half-life", "setting": "in vitro [2]; blood", "result": 13, "unit": "min"},
      {"measurement": "half-life", "setting": "in vitro [2]; plasma", "result": 12, "unit": "min"}
    ]}
  ]
}
